Assay results reported in patent EP4635500A1, “THERAPEUTIC AGENT FOR BACTERIAL INFECTION” (Sumitomo Pharma Co., Ltd., priority 2022, dated 2024).

Amino acid sequences for entries named in this document (tags omitted). Residues count along the entry.
UniProt Q9F663, 25-293 D178Y/H272Y: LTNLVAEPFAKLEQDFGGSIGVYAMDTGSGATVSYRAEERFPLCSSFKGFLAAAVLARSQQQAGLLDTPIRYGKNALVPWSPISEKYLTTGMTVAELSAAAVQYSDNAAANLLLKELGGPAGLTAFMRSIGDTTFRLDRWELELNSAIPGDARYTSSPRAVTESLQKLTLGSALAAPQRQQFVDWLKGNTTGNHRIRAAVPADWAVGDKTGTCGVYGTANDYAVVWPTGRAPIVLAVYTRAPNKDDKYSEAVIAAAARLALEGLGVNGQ
UniProt Q9F663, 25-293 D178Y: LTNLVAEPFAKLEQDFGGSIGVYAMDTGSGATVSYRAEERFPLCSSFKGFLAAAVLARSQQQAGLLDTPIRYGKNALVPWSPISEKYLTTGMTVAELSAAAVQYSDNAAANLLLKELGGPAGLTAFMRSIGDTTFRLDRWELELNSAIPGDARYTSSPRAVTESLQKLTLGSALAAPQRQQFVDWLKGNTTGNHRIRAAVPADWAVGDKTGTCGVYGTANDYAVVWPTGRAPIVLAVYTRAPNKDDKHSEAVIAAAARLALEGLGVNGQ

Experiments:
KPC-31 = KPC-31 (Klebsiella pneumoniae, UniProt Q9F663, D178Y/H272Y); assay: biochemical
KPC-33 = KPC-33 (Klebsiella pneumoniae, UniProt Q9F663, D178Y); assay: biochemical

SMILES: O=C(NC1CCNCC1)[C@@H]1CC[C@@H]2CN1C(=O)N2OS(=O)(=O)O [Relebactam, relebactam]
- Ki (KPC-31): 862 ± 75.3 nM
- Ki (KPC-33): 74 ± 29.1 nM
